Reference: patent US10689415B2, “Conjugates of RGD peptides and (bacterio)chlorophyll photosensitizers” (YEDA RESEARCH AND DEVELOPMENT COMPANY LTD., priority 2006, dated 2020)

Key:
[1] = test system: large MDA-MB-231-RFP tumors; experiment: Biodistribution and pharmacokinetics (fluorescence of tissue extracts) in MDA-MB-231-RFP tumor-bearing mice; type: in vivo, CD-1 nude female mice
Experimental: Mammary fat pads (left, bottom nipple) of female mice were inoculated with harvested MDA-MB-231-RFP human breast cancer cells (4×10^6 in […] saline). Tumors were classified as ‘small’ (˜100 mm^3) at one to two weeks from time of cell injection, or ‘large’ after three to four weeks (necrotic tumors, 250 to 500 mm^3). To avoid tumor burden, mice were sacrificed (cervical dislocation) when tumor size reached 10% of body weight or at 90 days post-implantation. External caliper measurements, length (L), width (W) and depth (D) were used to calculate in vivo tumor volume according to the formula: V=L/2·W/2·D/2·π·4/3.
Anesthetized mice were i.v. injected (tail vein) with the different photosensitizer (pigment) conjugates (control group: untreated). The mice were sacrificed at indicated time points and samples of the indicated organs and tissues (blood, tumor, intestine, liver, spleen, kidneys, testies, heart, lung, brain, skin, muscle and fat) were placed in pre-weighted vials and immediately frozen and stored at −20° in the dark until analyzed. Three methods were used for sample preparation: (1) Each sample was thawed and homogenized in DDW (1:10 w/v). Aliquots of the homogenate (500 μl) were lyophilized in Eppendorf test tubes. Then, 60 μl of HNO3 (70%, TraceSelect, Fluka) were added to each dry sample, incubated for 1 h at 90° C. and diluted with DDW to 3 ml. (2) Each sample was diluted (1:2 w/v) in HNO3 (70%, TraceSelect, Fluka). The samples were sonicated for 30 min in boiled water, and left for at least 48 h at room temperature. (3) Applied for assessment of non-metalated conjugates. Each sample was thawed and homogenized in methanol (100 mg tissue/ml) and extracted the next morning by centrifugation (13,000×g, five minutes) at room temperature. In methods (1) and (2), 140 μl from each sample was added to 3.36 ml DDW to give total volume of 3.5 ml and incubated for 1 h at 90° C. Pd concentrations were determined by ICP-MS. According to method (3), the supernatants were diluted in methanol by a factor of two and the drug concentration was determined by fluorescence measurements (Varian-Cary Eclipse spectrofluorimeter, Palo Alto, Calif., USA) at 750 nm (peak values). Drug concentrations were interpolated from a fluorescence calibration curve, based on predetermined drug concentrations using absorption spectroscopy.
Levels of conjugate 13 in blood, liver, kidney and large MDAMB-231-RFP tumors were assessed at the indicated time points after i.v. injection of 15 mg/kg (n=27; FIG. 38A).
In order to determine whether the RGD moiety is imperative for the selective uptake of conjugate 13 by the tumor, its time-dependent accumulation within MDA-MB-231-RFP tumors was compared with that of the RGD-free compound 25.

HSA = HSA (Homo sapiens, UniProt P02768); experiment: Association constants of photosensitizers to HSA (spectroscopic titration); type: binding
Source text: Association constants of photosensitizers, conjugated or non-conjugated to an RGD-containing peptide, were deduced from spectroscopic measurements of the ratio between the photosensitizer and HSA for different concentrations of HSA using both factor analysis, as previously described (Brandis et al., 2005) and by monitoring changes in the near infrared (NIR) absorption of the photosensitizers during titration with HSA. Briefly, all photosensitizers (PhSs) present broad NIR absorption with reduced intensity in SA-free aqueous solutions. Upon addition of SA, they form 1:1 complexes with the added protein (PhS/SA) with strong and narrow NIR absorption bands. The narrow-band absorption is proportional to the (PhS/SA) concentration enabling calculation of the association constant Ka through the following equation:
[formula] where [SA]0 is the analytical concentration of the added SA and [PhS/SA] is the concentration of the photosensitizer complexed with SA calculated from the spectral changes. In Vitro Studies
Therefore, the association constants of compounds 8 and 25 and conjugates 13 and 24 were determined. […] In fact, those for the RGDconjugates were four to six fold lower than the association constants of their RGD-free analogues, ruling out stronger SA association as the sole basis for RGD-conjugates retention in the tumor.

[2] = 48 to 72 hours post-administration

## 3^1-oxo-15-methoxycarbonylmethyl-Rhodobacteriochlorin 13^1-(2-sulfoethyl)amide-17^3-(cycloRGDfK)amide potassium salt [Conjugate 13]
[1]; 15 mg/kg i.v.
  t1/2 of hepatic clearance: about four hours
[1]; [2]
  levels in the tumor relative to blood: about two orders of magnitude higher
  levels in the tumor relative to kidney, liver, intestines, lung and skin: approximately two-fold higher
  levels in the tumor relative to spleen, heart, brain, fat and muscle: about 10 fold
HSA
  association constants Ka(HSA): 0.12±0.04
